What all share (test): Euclidean distance of Cell Painting phenotypic profile (signed KS, 77 features) to DMSO centroid (dimensionless distance); higher = stronger phenotypic change vs DMSO (phenoactivity)
Holding throughout (conditions): 48 h; 5 or 10 uM (library dependent)

One assay deals with 786-O. Put shortly: (§1)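 Phenoactivity is defined as the Euclidean distance from a compound profile to the median vehicle profile. Each profile comprised 77 Harmony features, scored as signed Kolmogorov-Smirnov statistics versus same-plate vehicle wells, then plate-position corrected, correlation-weighted and replicate-averaged at the top dose. Five cancer lines and one healthy fibroblast line were exposed to library compounds for 48 h at 10 or 5 uM (0.1% DMSO final).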

The subject of another assay is A549. Put shortly:
as §1

The next assay deals with DU145. Put shortly: as §1
The next assay deals with FB. Put shortly: as §1
In a further assay the test system is HEPG2. Put shortly:
as §1

Another assay concerns OVCAR4. The essentials: as §1

Most of the highest values are listed elsewhere, so they are rarer here than in the full data.

As for `COc1cc(Br)c(C[N+]2(CCOCCC3CCC4CC3C4(C)C)CCOCC2)cc1OC` (stereo unspecified) [Pinaverium bromide], the Euclidean distance with 786-O is 1.4; in the assay with A549, 1.3; in the assay with DU145, 1.49; in the assay with FB, 1.51; in the assay with HEPG2, 1.01; in the assay on OVCAR4, 1.24.

(Values after the supplement of paper PMC10127200.)
